Results: patent US20250092109A1

By UniProt entry, the sequences of proteins in these tests, tags left out. Residues count along the entry.
UniProt P01589, 22-272 limits assumed: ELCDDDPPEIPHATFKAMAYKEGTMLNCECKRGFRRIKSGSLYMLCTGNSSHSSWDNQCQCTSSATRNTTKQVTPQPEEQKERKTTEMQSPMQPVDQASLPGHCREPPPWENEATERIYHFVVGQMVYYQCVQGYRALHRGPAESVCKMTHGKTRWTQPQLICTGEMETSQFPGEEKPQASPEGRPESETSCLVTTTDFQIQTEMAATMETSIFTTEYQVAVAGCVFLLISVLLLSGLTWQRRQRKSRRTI

Target: CD25 on CD25+ cells (UniProt P01589)

EC50 (read off the curve), %pSTAT5+ of CD4+FoxP3+CD25+ cells: 2 pM
Substance: rhIL-2 (from UniProt P60568) (ligand)
